# Measurements from patent US4343816A, “Pharmaceutical composition comprising an acyl-carnitine, for treating peripheral vascular diseases” (priority 1979, dated 1982).
# Experiment: in vivo
# Details: mouse, iv
# Description: As is known, carnitine contains an asymetrical carbon atom and consequently exists in two stereoisomer forms.
row,Structure (SMILES),LD50 [mg/kg]
1,CCCC(=O)OC(CC(=O)[O-])C[N+](C)(C)C (stereo not shown) [butyryl-carnitine],742
2,CCCCCC(=O)OC(CC(=O)[O-])C[N+](C)(C)C (stereo not shown) [hexanoyl-carnitine],695
3,CCCCCCCC(=O)OC(CC(=O)[O-])C[N+](C)(C)C (stereo not shown) [octanoyl-carnitine],630
4,CCC(=O)OC(CC(=O)[O-])C[N+](C)(C)C (stereo not shown) [propionyl-carnitine],761
